# AlphaSeq binding of Ab-95 light chain variants to a spike HR2 peptide

Target peptide (SARS-CoV-2 spike, HR2 region): PDVDLGDISGINAS

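Phage display of a naive human antibody library on the peptide gave the parent. Variants in AAYL52 differ from the parent at up to three CDR positions; double and triple changes were sampled at random. The scFvs were displayed on barcoded MATa yeast, the peptide on MATalpha yeast. The frequency of each diploid, read from paired DNA barcodes, reflects how well the two displayed proteins bind. Read counts were normalised to the haploid input and turned into Kd by a linear fit to BCL2-family pairs of known affinity, for each replicate. Mating was done three times.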

The variants keep the heavy chain, the linker and the frameworks of Ab-95 (scFv order VH, the linker GGGGSGGGGSGGGGS, VL).
VH: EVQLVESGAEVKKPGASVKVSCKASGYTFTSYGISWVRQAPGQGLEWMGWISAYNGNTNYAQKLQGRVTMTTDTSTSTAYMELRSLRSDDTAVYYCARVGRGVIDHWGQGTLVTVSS
VL: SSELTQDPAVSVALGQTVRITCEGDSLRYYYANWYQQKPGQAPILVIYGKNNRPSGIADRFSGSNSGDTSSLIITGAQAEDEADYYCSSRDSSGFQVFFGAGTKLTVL

Substitutions are numbered in sequence along the VL above, starting at 1 (not Kabat). Scale: log10 of Kd in nM, estimated from mating counts; low values are strong binders. "nd" marks a missing value. The strain was present, yet no cells mated with the target were sequenced in that replicate, which points to weak or no binding. Three control strains display no target. For library AAYL52, 28% of the pairings with them gave a signal, with a median of 3.91 and one signal in twenty below 2.90, so weak values seen in few replicates may be background. Also given: how often the same scFv was detected with the empty control strains, with their mean in brackets.

{"changes": "N52M+G94H+F95T", "replicates, log10 nM": "nd / nd / nd", "empty controls": "1 of 9 (3.18)"}
{"changes": "E23K+D91E+F98V", "replicates, log10 nM": "2.56 / 2.78 / 2.23", "empty controls": "3 of 9 (3.96)"}
{"changes": "D91V+S93T+F98Q", "replicates, log10 nM": "3.94 / 2.60 / 3.05", "empty controls": "3 of 9 (3.69)"}
{"changes": "Y30I+G49H+K50S", "replicates, log10 nM": "4.33 / nd / 2.40", "empty controls": "3 of 9 (4.51)"}
{"changes": "Y31T+A32I+N52M", "replicates, log10 nM": "3.35 / 4.18 / nd", "empty controls": "3 of 9 (3.85)"}
{"changes": "E23D+G24S+F98M", "replicates, log10 nM": "5.55 / 2.88 / nd", "empty controls": "2 of 9 (3.46)"}
{"changes": "S26G+N33L+P54C", "replicates, log10 nM": "3.46 / nd / nd", "empty controls": "0 of 9"}
{"changes": "N52M+F98C", "replicates, log10 nM": "3.98 / nd / nd", "empty controls": "2 of 9 (4.07)"}
{"changes": "N33R+S55V", "replicates, log10 nM": "4.85 / nd / 4.33", "empty controls": "6 of 9 (3.96)"}
{"changes": "S26R+G49N+F95Q", "replicates, log10 nM": "2.33 / 2.56 / 3.68", "empty controls": "4 of 9 (3.55)"}
{"changes": "N52P+S55T+F95G", "replicates, log10 nM": "nd / 4.29 / nd", "empty controls": "1 of 9 (3.28)"}
{"changes": "G49C+G94K", "replicates, log10 nM": "3.65 / nd / nd", "empty controls": "3 of 9 (3.96)"}
{"changes": "N52P+S89I+V97F", "replicates, log10 nM": "3.74 / 3.64 / nd", "empty controls": "2 of 9 (4.46)"}
{"changes": "G49D+D91A+V97D", "replicates, log10 nM": "4.37 / 3.88 / 3.99", "empty controls": "1 of 9 (2.82)"}
{"changes": "Y31R+K50R+F95W", "replicates, log10 nM": "2.78 / 2.94 / nd", "empty controls": "2 of 9 (4.66)"}
{"changes": "Y29G+A32K+R90F", "replicates, log10 nM": "3.17 / 3.12 / 3.04", "empty controls": "4 of 9 (4.68)"}
{"changes": "N52K+P54C+F98K", "replicates, log10 nM": "3.62 / 3.57 / nd", "empty controls": "1 of 9 (4.31)"}
{"changes": "E23S+S55Q+G94E", "replicates, log10 nM": "2.31 / 2.32 / 2.08", "empty controls": "2 of 9 (5.15)"}
{"changes": "N33L+F95W", "replicates, log10 nM": "2.86 / 4.73 / 4.28", "empty controls": "7 of 9 (3.83)"}
{"changes": "L27S+S93M+Q96E", "replicates, log10 nM": "4.72 / nd / nd", "empty controls": "1 of 9 (5.20)"}
{"changes": "D91I+Q96Y", "replicates, log10 nM": "nd / nd / nd", "empty controls": "1 of 9 (3.48)"}
{"changes": "Y31C+D91M+S92D", "replicates, log10 nM": "3.63 / 4.61 / 4.05", "empty controls": "2 of 9 (3.66)"}
{"changes": "L27P+Y31S+D91E", "replicates, log10 nM": "nd / 3.34 / nd", "empty controls": "0 of 9"}
{"changes": "D25F+L27E+S89H", "replicates, log10 nM": "2.66 / nd / nd", "empty controls": "1 of 9 (5.14)"}
{"changes": "D25N+R90Q+S93H", "replicates, log10 nM": "2.84 / 2.46 / 3.48", "empty controls": "2 of 9 (3.28)"}
{"changes": "S55K+D91G+S93T", "replicates, log10 nM": "3.95 / nd / 4.11", "empty controls": "2 of 9 (4.49)"}
{"changes": "E23N+S26E+A32T", "replicates, log10 nM": "3.50 / 4.60 / 2.66", "empty controls": "2 of 9 (3.66)"}

For reference, 2 entries of the list once more:

{"changes": "N52K+P54C+F98K", "replicates, log10 nM": "3.62 / 3.57 / nd", "empty controls": "1 of 9 (4.31)"}
{"changes": "L27P+Y31S+D91E", "replicates, log10 nM": "nd / 3.34 / nd", "empty controls": "0 of 9"}

Values reported by Engelhart et al. 2022, doi:10.1038/s41597-022-01779-4 (FLAb copy).